The source of these data is US6521650B1, “Amines as pharmaceutical agents” (Pfizer, Inc., priority 1997, dated 2003).

Protein sequences, listed by entry. Tags and fused reporters are not part of them.
UniProt O77773, entry or part of it limits assumed: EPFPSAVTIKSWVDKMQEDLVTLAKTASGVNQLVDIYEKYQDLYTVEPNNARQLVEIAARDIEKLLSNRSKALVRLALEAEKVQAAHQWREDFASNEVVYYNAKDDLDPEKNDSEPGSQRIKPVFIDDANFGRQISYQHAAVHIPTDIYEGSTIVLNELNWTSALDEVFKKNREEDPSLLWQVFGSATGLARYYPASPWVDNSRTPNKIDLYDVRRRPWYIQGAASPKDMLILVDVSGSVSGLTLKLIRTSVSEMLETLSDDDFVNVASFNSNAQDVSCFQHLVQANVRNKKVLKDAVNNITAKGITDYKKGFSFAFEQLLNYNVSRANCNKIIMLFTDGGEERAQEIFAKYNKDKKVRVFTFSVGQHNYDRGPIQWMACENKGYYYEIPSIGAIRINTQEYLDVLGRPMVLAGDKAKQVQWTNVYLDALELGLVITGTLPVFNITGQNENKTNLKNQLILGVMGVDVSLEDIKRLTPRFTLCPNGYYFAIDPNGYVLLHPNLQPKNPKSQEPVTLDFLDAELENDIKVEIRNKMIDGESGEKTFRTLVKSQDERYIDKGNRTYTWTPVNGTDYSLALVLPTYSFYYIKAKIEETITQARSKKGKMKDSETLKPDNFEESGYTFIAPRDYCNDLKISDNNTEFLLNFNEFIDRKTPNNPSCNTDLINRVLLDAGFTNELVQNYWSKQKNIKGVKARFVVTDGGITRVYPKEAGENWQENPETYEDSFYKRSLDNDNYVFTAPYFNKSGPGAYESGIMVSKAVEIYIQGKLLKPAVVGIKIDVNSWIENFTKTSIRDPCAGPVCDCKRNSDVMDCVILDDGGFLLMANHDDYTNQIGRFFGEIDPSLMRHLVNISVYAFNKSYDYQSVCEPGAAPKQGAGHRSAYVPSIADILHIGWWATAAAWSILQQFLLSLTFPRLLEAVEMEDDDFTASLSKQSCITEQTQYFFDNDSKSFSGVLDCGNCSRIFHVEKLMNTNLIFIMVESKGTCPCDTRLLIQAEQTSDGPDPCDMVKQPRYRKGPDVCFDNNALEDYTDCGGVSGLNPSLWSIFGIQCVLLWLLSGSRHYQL

One may read the pIC50 as the negative decadic logarithm of the IC50, by convention in mol/L.

Each structure is given as a SMILES string. pIC50: −log10 of the molar value.

This assay concerns the target α2δ subunit derived from porcine brain tissue (Sus scrofa, UniProt O77773). Description: radioligand binding assay using [3H]gabapentin and the α2δ subunit. The conditions noted are these: read-out: α2δ Assay IC50, [3H]gabapentin, tested form: HCl.

As for `CC(C)CC(CN)Cc1noc(=O)[nH]1` (stereo not shown), the pIC50 was 5.82.
